From publication PMC3968461 (Scientific Reports, 2014)

Tested on: human NA-NK lymphocytes
Assay: [3H] thymidine proliferation assay, NA-NK lymphocytes
Type: cell-based
Conditions: read-out: IC50, inhibition of mitogen-induced proliferation of NA-NK lymphocytes; human non-adherent NK cells, 40 ng/mL PMA + 500 nM ionomycin, 72 h, [3H] thymidine incorporation, N = 3

`CC[C@H](C)[C@@H]1NC(=O)[C@@H](NC(=O)[C@H](CO)NC(=O)[C@H](CCCNC(=N)N)NC(=O)COCCOCCNC(=O)[C@@H](N)Cc2ccc(OP(=O)(O)O)cc2)CSSC[C@@H](C(N)=O)NC(=O)[C@H]([C@@H](C)O)NC(=O)CNC(=O)[C@@H]2CSSC[C@@H]3NC(=O)[C@H](CCC(N)=O)NC(=O)[C@H](Cc4ccccc4)NC(=O)[C@H](C)NC(=O)[C@H]([C@@H](C)O)NC(=O)[C@H](CSSC[C@H](NC(=O)[C@H](Cc4ccccc4)NC(=O)[C@H](CO)NC(=O)[C@H](CC(C)C)NC(=O)[C@H](CCCNC(=N)N)NC(=O)[C@H](Cc4ccc(O)cc4)NC(=O)[C@H](CCCCN)NC(=O)[C@H](CCSC)NC(=O)[C@H](CO)NC(=O)[C@H](Cc4c[nH]cn4)NC(=O)[C@H](CCCCN)NC3=O)C(=O)N[C@@H](CCCNC(=N)N)C(=O)N[C@@H](CCCCN)C(=O)N[C@@H]([C@@H](C)O)C(=O)N2)NC(=O)[C@H](CCCNC(=N)N)NC(=O)[C@H](CO)NC(=O)[C@H](CCCCN)NC(=O)[C@@H]2CCCN2C(=O)[C@H]([C@@H](C)CC)NC(=O)[C@H]([C@@H](C)O)NC(=O)[C@H](CC(=O)O)NC1=O` [ShK-186] gave a pIC50 of 7.82 to 8.30.

pIC50: −log10 of the molar value.
